Values quoted from earlier work as cited in paper PMC3098941 (ACS chemical biology, 2011).

Biological target: cyclin A (Homo sapiens) (UniProt P20248)
Assay: mant-ATP fluorescence
Settings: cited from earlier work

Substance: CDK2 (from UniProt P24941)
- Kd: 1300 nM
